The values below come from PubChem BioAssay AID1346984 (Tox21, 2019).

The entries are a selection whose mix differs from that of the whole data set. Records with an inconclusive call do not appear. Activity calls are given as the source filed them. Calls follow the shape of the dose curve; as a rule, active = well fitted activation curve with a large enough effect in the repeat runs; inconclusive = weak or mixed curves; inactive = no such curve, though single readings can be large or run the other way.
% is scaled to controls: 0 for no effect and ±100 for the full control effect.

For this assay, the target named is Nuclear receptor subfamily 1 group I member 2 (Homo sapiens) (UniProt O75469). Description: CYP3A4 induction through human pregnane X receptor (PXR) by small molecules, qHTS assay. Also: nearly all actives have a fitted effect of over 40% in size. As to conditions: DPX-2 HepG2 PXR, CYP3A4-luciferin luminescence, 24 h; at 46.1 µM (top of the series). The text has this: National Center for Advancing Translational Sciences [NCATS]
NIH Chemical Genomics Center [NCGC]
U.S. Environmental Protection Agency [EPA]
National Institutes of Environmental Health Sciences [NIEHS]
National Toxicology Program [NTP]
The Pregnane X receptor (PXR), a ligand activated nuclear receptor plays a critical role in the regulation of genes involved in drug metabolism and transporters. Activation of PXR is responsible for unwanted adverse drug reactions. PXR binds xenobiotics and when compounds interact with PXR enhances the expression of CYP3A genes. Identifying the compounds with the potential for PXR activation and CYP3A4 induction can be of importance in improving the efficacy of drugs with less toxicity and avoiding drug-drug interactions.
DPX-2 (Puracyp, Inc.) cell lines, used for screening against human PXR activation has HepG2 cells co-transfected with a PXR response element and a luciferase construct containing CYP3A4 promoter. […]
DPX-2 cells were dispensed at 2,000 cells per well in 5uL of assay medium into white, solid-bottom 1536-well plates using a Multidrop Combi dispenser (Thermo Scientific). […] Then 5ul One-Glo assay reagent (Promega) was added to each plate by an FRD and following 30 min incubation at room temperature, luciferase activity was quantified on a ViewLux plate reader (Perkin Elmer).
Background: Quantitative high-throughput screening tests each substance at several concentrations.
With `O=C(OC1CN2CCC1CC2)c1ccccc1` (configuration not stated), the activation was inactive: 0.497%.

As for `CN(C(=O)Cc1ccccc1)[C@H]1CC[C@@]2(CCCO2)C[C@@H]1N1CCCC1`, the activation was inactive: -2.63%.
